No end group written: not given here.
Target: T1, NLRP1 (Homo sapiens, UniProt Q9C000)
T1 sequence (Q9C000 1-1473): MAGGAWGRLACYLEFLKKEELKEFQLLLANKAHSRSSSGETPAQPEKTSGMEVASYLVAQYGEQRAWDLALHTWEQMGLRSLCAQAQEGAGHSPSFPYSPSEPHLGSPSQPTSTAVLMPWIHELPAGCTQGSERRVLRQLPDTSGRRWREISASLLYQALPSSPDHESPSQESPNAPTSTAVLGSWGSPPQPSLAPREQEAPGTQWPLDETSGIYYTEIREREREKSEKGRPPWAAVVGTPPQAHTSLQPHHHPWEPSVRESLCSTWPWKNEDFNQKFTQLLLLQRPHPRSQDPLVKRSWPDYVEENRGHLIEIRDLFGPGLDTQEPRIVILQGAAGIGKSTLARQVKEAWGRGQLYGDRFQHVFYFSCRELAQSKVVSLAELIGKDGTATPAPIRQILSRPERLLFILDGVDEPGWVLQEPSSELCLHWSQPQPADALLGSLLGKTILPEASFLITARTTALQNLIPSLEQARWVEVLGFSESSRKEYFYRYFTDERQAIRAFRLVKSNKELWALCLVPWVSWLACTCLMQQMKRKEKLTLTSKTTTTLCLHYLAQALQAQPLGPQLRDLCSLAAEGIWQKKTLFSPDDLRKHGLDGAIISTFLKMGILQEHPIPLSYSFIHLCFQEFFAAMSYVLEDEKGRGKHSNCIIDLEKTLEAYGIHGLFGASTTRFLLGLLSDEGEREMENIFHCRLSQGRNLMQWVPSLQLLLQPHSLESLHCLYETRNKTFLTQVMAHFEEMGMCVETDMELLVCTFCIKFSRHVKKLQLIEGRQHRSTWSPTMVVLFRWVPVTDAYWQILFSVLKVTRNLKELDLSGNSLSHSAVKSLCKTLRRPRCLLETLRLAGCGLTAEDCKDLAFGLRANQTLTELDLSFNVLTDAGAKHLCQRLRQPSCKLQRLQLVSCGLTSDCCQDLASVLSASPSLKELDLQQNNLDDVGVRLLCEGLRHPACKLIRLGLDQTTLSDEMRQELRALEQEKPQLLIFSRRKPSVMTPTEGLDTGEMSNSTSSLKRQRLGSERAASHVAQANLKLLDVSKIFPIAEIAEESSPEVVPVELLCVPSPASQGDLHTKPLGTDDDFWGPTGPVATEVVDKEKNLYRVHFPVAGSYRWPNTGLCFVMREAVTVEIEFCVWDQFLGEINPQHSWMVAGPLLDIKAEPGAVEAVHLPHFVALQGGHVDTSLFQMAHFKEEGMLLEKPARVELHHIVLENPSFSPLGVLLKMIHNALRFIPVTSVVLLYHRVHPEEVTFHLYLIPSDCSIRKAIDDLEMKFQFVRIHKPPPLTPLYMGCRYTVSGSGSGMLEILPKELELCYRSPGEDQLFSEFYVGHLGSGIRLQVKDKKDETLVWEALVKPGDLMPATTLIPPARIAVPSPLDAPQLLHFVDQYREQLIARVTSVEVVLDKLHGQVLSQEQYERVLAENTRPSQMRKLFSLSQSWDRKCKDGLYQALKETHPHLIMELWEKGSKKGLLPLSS
Test: in vitro reconstituted NLRP1 inflammasome: Caspase-1 activity by hydrolysis of Ac-WEHD-AMC
Format: biochemical
Conditions: peptide 50 nM; NLRP1 8.5 nM, pro-Caspase-1 8.5 nM, ATP, Mg2+, MDP

| Substance | NLRP1-mediated Caspase-1 activation (Caspase-1 activity) |
| --- | --- |
| DAGDVGAAPPGAAPAPGIFS (Synthetic Bcl-2 Loop peptide) [Bcl-2 31-50] | inactive |
| GAAPAPGIFSSQPGHTPHPA (Synthetic Bcl-2 Loop peptide) [Bcl-2 41-60] | inactive |
| PLQTPAAPGAAAGPALSPVP [Bcl-2 71-90] | sufficient to potently inhibit NLRP1 |
| VGAAPPGAAPAPGIFSSQPGHTPHPAASRDPVARTSPLQTPAAPGAAAG [Bcl-2 Loop 35-83] | inhibited NLRP1-mediated Caspase-1 activation to nearly baseline levels |

Same assay, conditions: protein or peptide 17 nM; NLRP1 8.5 nM, pro-Caspase-1 8.5 nM, ATP, Mg2+, MDP

| Substance | NLRP1-mediated Caspase-1 activation (Caspase-1 activity) |
| --- | --- |
| Bcl-2: anti-apoptotic protein; recombinant GST-fusion lacking C-terminal transmembrane domain (SEQ ID NO:3/4) | suppress in vitro reconstituted NLRP1 inflammasome |
| Bcl-XL: anti-apoptotic protein; recombinant GST-fusion lacking C-terminal transmembrane domain | suppress in vitro reconstituted NLRP1 inflammasome |
